# According to patent publication US7271164B2, “Cyclohepta[b][1,4]diazepino[6,7,1,-hi]indoles and derivatives” (Wyeth, priority 2000, dated 2007):
# Protein sequences, listed by entry. Tags and fused reporters are not part of them. Residues count along the entry.
# UniProt P28335, 33-458: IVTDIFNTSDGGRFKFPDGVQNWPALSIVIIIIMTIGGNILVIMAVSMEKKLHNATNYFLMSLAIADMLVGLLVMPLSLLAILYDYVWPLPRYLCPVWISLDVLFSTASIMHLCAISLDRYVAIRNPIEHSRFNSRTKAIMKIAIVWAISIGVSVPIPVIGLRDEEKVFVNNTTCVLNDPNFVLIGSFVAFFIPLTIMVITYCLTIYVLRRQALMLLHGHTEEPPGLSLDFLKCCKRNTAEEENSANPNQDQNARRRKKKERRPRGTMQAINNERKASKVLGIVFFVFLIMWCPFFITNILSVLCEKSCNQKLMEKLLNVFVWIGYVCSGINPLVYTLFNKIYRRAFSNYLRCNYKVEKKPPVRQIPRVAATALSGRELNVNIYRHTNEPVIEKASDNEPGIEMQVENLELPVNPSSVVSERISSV
# What was measured:
# [1] = target: T1, human 5-hydroxytryptamine2C (h5HT2C) receptor (Homo sapiens, UniProt P28335); assay: 5HT2C Receptor Binding Test Procedure ([125I] DOI displacement, CHO cell membranes); settings: reference compounds; [125I] DOI binding, h5HT2C in CHO membranes; read-out: Ki value and 95% confidence interval
# T1 construct: expressed in transfected cells; host or cells: CHO (Chinese Hamster Ovary) cells; membrane preparation
# human 5-HT2C receptor = target: T2, human 5-HT2C receptor (Homo sapiens, UniProt P28335); assay: Stimulation of [3H] Inositol Monophosphate Production by 5-HT2C Agonists (transfected CHO cells); assay type: cell-based
# T2 construct: expressed in transfected cells; host or cells: CHO cells
structure (smiles),measurement,setting,value
"Clc1cccc(N2CCNCC2)c1 [mCPP, meta-chlorophenylpiperazine]",Ki,[1],6.5 nM
same,EMAX (relative to 5-HT),"human 5-HT2C receptor; reference compound, relative to 5-HT (10 μM)",60%
same,EC50,"human 5-HT2C receptor; reference compounds, [3H] IP1 production",46.8 nM
